Reference: ChEMBL document CHEMBL5137051 (Eur J Med Chem, 2022)

Species on record: Homo sapiens
Assay: Selectivity index, ratio of IC50 for wild-type EGFR (unknown origin) to IC50 for EGFR L858R/T790M/C797S mutant (unknown origin)

Ratio IC50 | Compound
< 0.29 | COc1cc(N(C)CCN(C)C)c(NC(=O)c2ncccn2)cc1Nc1nccc(-c2cn(C)c3ccccc23)n1
0.12 | COc1cc(N(C)CCN(C)C)c(NC(=O)c2ccncn2)cc1Nc1nccc(-c2cn(C)c3ccccc23)n1
5.4 | COc1cc(N(C)CCN(C)C)c(NC(=O)c2ccnc(Cl)c2)cc1Nc1nccc(-c2cn(CCCO)c3ccccc23)n1
< 0.45 | COc1cc(N(C)CCN(C)C)c(NC(=O)c2cnccn2)cc1Nc1nccc(-c2cn(C)c3ccccc23)n1
> 1.2 | COc1cc(N(C)CCN(C)C)c(NC(=O)c2ccnc(Cl)c2)cc1Nc1nccc(-c2cn(C)c3ccccc23)n1
< 0.72 | COc1cc(N(C)CCN(C)C)c(NC(=O)c2ccncn2)cc1Nc1nc(-c2cn(C)c3ccccc23)c2cccnc2n1
3.7 | COc1cc(N(C)CCN(C)C)c(NC(=O)c2ccncn2)cc1Nc1nccc(-c2cn(CCCO)c3ccccc23)n1
